Columns and labels:
iNOS = iNOS inhibition assay (LPS-induced NO production, Griess reaction); settings: read-out: iNOS suppression IC50; RAW264.7 cells, 0–1000 nM rexinoids, LPS 1 ng/ml 24 h, NO by Griess assay; mean ± SE of 3 experiments
Protocol: To evaluate the anti-inflammatory effects of the novel rexinoids, we utilized the iNOS suppression assay. Inhibition of iNOS in vitro directly correlates with efficacy in our preclinical model of Kras-driven lung cancer. RAW264.7 macrophage-like cells were treated with 0–1 μM rexinoids and stimulated with 1 ng/mL lipopolysaccharide for 24 h, and then NO was measured in the media.
RAW264.7 cells were plated in 96-well plates (20,000 cells/well). After overnight attachment, cells were treated with twofold serial dilutions (0–1000 nM) of rexinoids. After a 20 min incubation at 37 °C, cells were stimulated with 1 ng/mL LPS for 24 h. NO production was measured in culture medium using the Griess reaction. IC50 values were calculated using GraphPad Prism 8.1.2 software for Windows using a log([nM drug concentration]) vs. response curve fit.

[1] = Oral exposure of MSU-42011 in diet for 4 days (LC-MS of plasma and lung homogenates); settings: mice fed 100 mg/kg of diet (~25 mg/kg body weight) for 4 days
Protocol: Based on the data from the in vitro screening assays, the novel rexinoid MSU-42011 was selected for testing in vivo because of its potent iNOS suppression, low SREBP induction, and activation of RXRα. Before starting efficacy studies, the oral exposure of MSU-42011 was measured in vivo. Mice were fed diet containing MSU-42011 (100 mg/kg of diet or ~ 25 mg/kg body weight) for 4 days. Plasma and lung homogenates were analyzed by liquid chromatography-mass spectrometry. Adjusted steady state concentrations of MSU-42011 were 78 nM in the plasma and 72 nM in the lung, which are similar to values observed with other rexinoids that are effective in a preclinical model of lung cancer.
Blood was collected via cardiac puncture into 1 ml lithium heparin tubes (Greiner Bio-one). Blood was centrifuged at 5000 g for 5 min at 4 °C. Plasma was separated and frozen at − 80 °C until processed as described. Acetonitrile was added to precipitate plasma proteins. Samples were centrifuged at 14,000 g for 5 min, and the supernatant was filtered with a 0.2 µm syringe filter. Each sample was dried overnight and reconstituted in 200 µl of 50:50 methanol:water solution for analysis via HPLC. HPLC was performed on a Quatro Premier instrument with an Ascentis Express C18 column and an Acquity UPLC system. […] The flow rate was 0.3 ml/minute, and bexarotene and MSU-42011 were detected at ~ 4.5 min. […]

Kras-driven lung tumors [2] = assay: Treatment of established vinyl carbamate-induced lung adenocarcinomas in A/J mice
Protocol: All experiments were performed ethically in accordance with the best practices and AAALAC-accredited Standards for the Management of Laboratory Animals at Michigan State University (MSU). These standards include making every effort to minimize suffering. Mice were euthanized by inhalation of carbon dioxide followed by removal of the lungs. All animal protocols were approved by the Institutional Animal Care and Use Committee (IACUC, protocol 201,800,050)) at MSU. At 7 and 8 weeks of age, A/J female mice (Jackson Laboratories) were injected i.p. with vinyl carbamate (Toronto Research Chemicals, 0.32 mg/mouse). Mice were fed a semi-synthetic diet (AIN-93G BioServ, Flemington NJ), beginning one week before initiation with vinyl carbamate and then for 8 weeks after the first injection. The mice were then randomized into groups (n = 15 mice/group) and fed treatment diets (100 mg rexinoid/kg AIN-93G diet or ~ 25 mg/kg body weight) for 12 weeks. Rexinoids were dissolved in a vehicle of 12.5 ml ethanol and 37.5 ml Neobee oil (Spectrum Chemical, Gardena CA) per kg AIN-93G diet. Six total doses of paclitaxel (Fisher; 15 mg/kg i.p.) and then carboplatin (Fisher; 50 mg/kg i.p.) were given every other week, beginning 9 weeks after injection with vinyl carbamate. After 12 weeks on the treatment diets, blood and lungs were harvested. Lungs were inflated with PBS and surface lesions counted. The left lung was fixed in neutral-buffered formalin (NBF), then sample numbers blinded and randomized. Grossly visible lung tumors on the surface of the left lung were counted. The left lung was embedded in paraffin, step-sectioned (6 sections/lung, 200 microns apart) and then stained with Haemotoxylin and Eosin (H&E). The number, size, and histopathology of tumors on the slides were then evaluated as described. The right lobes of the lung were divided into halves. One half was analyzed by flow cytometry and the other half flash frozen (CO2 and ethanol bath) and stored at − 80 °C.
At 11, 15, and 20 weeks after initiation, anesthesia was induced using 2–4% isofluorane in oxygen at 0.8–2 L/min in a chamber and then maintained using 1.5–2% isofluorane in oxygen at 0.8 L/min using a nosecone. Animals were kept on a heating pad or a heated platform while under anesthesia. Fur was removed from the thoracic area using a chemical depilitory (Nair) immediately prior to imaging. A Vevo 2100 (Fujifilm VisualSonics) high-frequency ultrasound with a MS550D 40 MHz transducer was used to image lung tumors.

[3] = Steady state drug levels in plasma after 12 weeks on diet (HPLC-MS); settings: 100 mg/kg diet for 12 weeks, LC-MS, n = 8, mean ± SE
Protocol: Blood was collected via cardiac puncture into 1 ml lithium heparin tubes (Greiner Bio-one). Blood was centrifuged at 5000 g for 5 min at 4 °C. Plasma was separated and frozen at − 80 °C until processed as described. Acetonitrile was added to precipitate plasma proteins. Samples were centrifuged at 14,000 g for 5 min, and the supernatant was filtered with a 0.2 µm syringe filter. Each sample was dried overnight and reconstituted in 200 µl of 50:50 methanol:water solution for analysis via HPLC. HPLC was performed on a Quatro Premier instrument with an Ascentis Express C18 column and an Acquity UPLC system. The mobile phase A consisted of 10 mM aq. ammonium acetate and the mobile phase B consisted of methanol. The following gradient was applied 99–5% A (0–4 min), 5% A (4–5.1 min), 5–99% A (5.1–6 min). The flow rate was 0.3 ml/minute, and bexarotene and MSU-42011 were detected at ~ 4.5 min. A standard curve was prepared by processing plasma from untreated animals and spiking the samples with 0.1–3 μM of the appropriate rexinoid then reconstituting the samples.

[4] = Lipid levels in plasma (triglyceride and cholesterol kits); settings: 100 mg/kg diet for 12 weeks, n = 8, mean ± SE
Protocol: Triglyceride and cholesterol levels in plasma (n = 8 mice/group) harvested at necropsy were measured using the Triglyceride Quantification Assay Kit (Abcam) or the Cholesterol Quantification Kit (Sigma-Aldrich), respectively, using the recommended protocol supplied by the manufacturer.

[5] = Mouse weights as a marker of drug toxicity; settings: rexinoids in diet; initial week 6, final week 20
Excerpt: Mouse weights were monitored as a marker of drug toxicity (Supplemental Fig. 3). The rexinoids were well-tolerated when fed in diet, as the mice in the control, bexarotene, and MSU-42011 groups all gained weight as expected during the study. There were no significant differences in the average weights between groups of mice on single drugs.
Control Bexarotene 42011 C/P Bex + C/P 42011 + C/P
Initial weight Final weight
Supplemental Fig 3: Mouse weights. A/J mice were weighed weekly during the study. Values shown represent average mouse weights (n = 14-15/group) before treatment diets (initial weight at week 6) and at the end of the study (final weight at week 20). * p < 0.01 compared to control, # p < 0.01 compared to bexarotene, ! p < 0.05 compared to MSU-42011 (one-way ANOVA followed by Tukey HSD); ** p < 0.05, *** p < 0.01 (two-tailed t test).

Kras-driven lung tumors [6] = assay: Immunohistochemistry and H&E histology of lung tumors; settings: 12 weeks of treatment
Excerpt: At the end of the treatment study, lungs were harvested, sectioned, stained by H&E and randomized to blind the identity of the treatment group until all slides had been analyzed. Tumors were graded as described[46],[52] for nuclear and histological severity and given a grade of either low, medium, or high. Tumors assigned a low nuclear grade have smaller, more regular nuclei, while tumors in the high nuclear grade have enlarged, irregular nuclei with visible chromatin condensation and mitotic figures. Tumors in the low histological grade have space between cells, while tumors with a high histological grade are dense and obliterative, with very little to no space between tumor cells. […] There were no differences in tumor grades between bexarotene-treated mice and the controls. Importantly, MSU-42011 induced a notable change in the histological organization of tumors characterized by a loss of cells and increased acellular space within the tumor borders (Fig. 3B).
Paraffin blocks of the left lobe of the lung were sectioned, and hydrogen peroxide was used to quench endogenous peroxidase activity. Sections were immunostained with antibodies against CD206 (1:200, Abcam), CD8 (1:40, 53–6.7, Biolegend), cleaved caspase 3 (1:100, 5A1E, Cell Signaling), PCNA (1:200, sc-56, Santa Cruz Biothechonlogies), F4/80 (1:50, BM8, Invitrogen), CD107a (1:50, Biolegend), p-ERK (1:50, Cell Signaling) and visualized with biotinylated anti-rabbit or anti-rat secondary antibodies (Cell Signaling or Vector Labs), as previously described. Signal was detected using a DAB substrate (Cell Signaling) following the manufacturer’s recommendations. Sections were counterstained with hematoxylin (Vector Labs).

[7] = tested on: immune cells in tumor-bearing lungs; assay: Flow cytometry of immune cell populations in the lung; settings: 12 weeks of treatment, in comparison to the controls
Excerpt: RXR and its nuclear receptor partners are known to regulate migration and activity of macrophages and other immune cells. […] However, treatment with the combination of MSU-42011 and C/P was associated with a decrease in CD206, a marker of tumor-promoting macrophages, on alveolar macrophages as measured by mean fluorescence intensity. This decrease was statistically significant (p = 0.0038) in comparison to treatment with MSU-42011 alone. The flow cytometry results were confirmed by IHC staining for F4/80 (a general marker for macrophages) and CD206. Alveolar macrophages promote tumor growth and are sensitive to chemotherapy.
The same two lobes of the right lung were harvested from each A/J mouse (n = 6/group) for flow cytometry and incubated in digestion media consisting of collagenase (300 U/ml, Sigma), dispase (1 U/ml, Worthington), and DNAse (2 U/ml, Calbiochem) for 30 min at 37 °C with stirring. Cells were then passed through a 40 µm cell strainer (BD Falcon), and red blood cells eliminated with lysis solution. […] Cells were analyzed using a Cytek Aurora equipped with 5 lasers (UV 355 nm, violet 405 nm, blue 488 nm, yellow-green 561 nm, and red 640 nm) and FlowJo x.10.0.7r2 software (Tree Star). […]

A549 lung cancer cells = assay: MTT proliferation assay; settings: 0–1 μM rexinoids, 72 hr
Protocol: were treated with 0-1 μM rexinoids for 72 hr. Proliferation was measured using the MTT assay.
MTT Assay. A549 cells were plated in 96-well plates (2,000 cells/well). After overnight attachment, cells were treated with 2 fold dilutions (0-1000 nM rexinoids) for 72 hr. 50 μL 3-(4,5-dimethylthiazol-2-yl)-2,5-diphenyltetrazolium bromide (MTT; Sigma M2128) was added to each well, and cells were incubated at 37 °C for 4 hr. Media was removed and cells were lysed with developing solution (0.04 M HCl in isopropanol). Plates were read at 550 nm.
(also on this page, place not known: 110A549 Cell Proliferation (% DMSO Control) 37°C)

[8] = rexinoids 100 mg/kg diet 12 weeks, C/P i.p. x6
[9] = rexinoids 100 mg/kg diet 12 weeks, C/P i.p. x6, mean ± SE
[10] = tumor histopathology, 12 weeks of treatment

CC(C)CN(c1cc(C(C)(C)C)cc(C(C)(C)C)c1)c1ccc(C(=O)O)cn1
IC50 (iNOS): 158 nM
Adjusted steady state concentration in the lung [1]: 72 nM
Adjusted steady state concentration in the plasma [1]: 78 nM
Tumors upon gross observation of lungs compared to the bexarotene and control groups (Kras-driven lung tumors [2]; 100 mg/kg diet, 12 weeks): markedly fewer tumors
Average # tumors/slide (Kras-driven lung tumors [2]; rexinoids 100 mg/kg diet 12 weeks, C 50 mg/kg and P 15 mg/kg i.p. x6, mean ± SE): 2.7 ± 0.3
Average # tumors/slide (% control) (Kras-driven lung tumors [2]; [8]): 64%
Average tumor size (% control) (Kras-driven lung tumors [2]; [8]): 73%
Average tumor burden (Kras-driven lung tumors [2]; [9]): 0.43 ± 0.08 mm^3
Average tumor size (Kras-driven lung tumors [2]; [9]): 0.16 ± 0.02 mm^3
# High grade tumors (Kras-driven lung tumors [2]; [10]): 50
# Low grade tumors (Kras-driven lung tumors [2]; [10]): 7
# Medium grade (Kras-driven lung tumors [2]; [10]): 24
Low grade tumors (% total) (Kras-driven lung tumors [2]; [10]): 9%
Medium grade (% total) (Kras-driven lung tumors [2]; [10]): 29%
Drug levels in plasma [3]: 97.4 ± 13.3 nM
Cholesterol in plasma [4]: 1.4 ± 0.05 µg/µL
Triglycerides in plasma [4]: 1.39 ± 0.11 nmol/µL
Cholesterol in plasma ([4]; listed as MSU 42011): 1.4 ± 0.05 µg/µL
Triglycerides in plasma ([4]; listed as MSU 42011): 1.39 ± 0.11 nmol/µL
Mouse weights during the study [5]: gained weight as expected
Histological organization of tumors (H&E) (Kras-driven lung tumors [6]): loss of cells and increased acellular space within the tumor borders
PCNA immunohistochemistry (cell proliferation) in tumors compared to control and bexarotene groups (Kras-driven lung tumors [6]): fewer actively proliferating cells
p-ERK in tumors (Kras-driven lung tumors [6]; vs control and bexarotene groups (with or without C/P)): markedly decreased
Total and alveolar macrophages in the lungs [7]: did not alter
Growth / proliferation of A549 lung cancer cells (A549 lung cancer cells): no effect
Growth / proliferation of A549 lung cancer cells (A549 lung cancer cells; listed as 42011): do not inhibit proliferation

— paper PMC7746742, “The novel rexinoid MSU-42011 is effective for the treatment of preclinical Kras-driven lung cancer” (Scientific Reports, 2020)
